Source: PubChem BioAssay AID1345086 (University of Iowa High-Throughput Screening Core (UIHTS), 2018)
The entries are a selection whose mix differs from that of the whole data set. Activity calls are given as the source filed them.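 How the source made its calls: active means compounds killing one labelled cell type while sparing the other, by normalised counts and ratio limits, not self-fluorescent; inactive means the rest.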

Assay: EMT-state selective cytotoxicity in co-culture – imaging, PC-3E GFP, TEM4-18 mCherry, primary screen (AID 1345086);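 further: normalised mesenchymal count divided by normalised epithelial count so high means epithelial killing; cells exposed to compound for 72 h before imaging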
Details: PC-3E GFP / TEM4-18 mCherry co-culture, imaging cell counts; at 1 µM; actives lie on both sides; counts scaled to control wells, 1 = unselective

Row | Compound | red/green cell ratio (normalised)
1 | NC(=O)Nc1ccc([As](=O)(O)O)cc1 | inactive: 1.06
2 | O=P(O)(O)F | inactive: 0.95
3 | O=C(O[C@H]1CN2CCC1CC2)C1NCc2ccccc2[C@@H]1c1ccccc1 (stereo partly drawn) | inactive: 1.09
